# Laboratory results taken from paper PMC11966747, “Next Generation Risk Assessment of Acute Neurotoxicity from Organophosphate Exposures Using the In Vitro–In Silico Derived Dietary Comparator Ratio” (Environmental Science & Technology, 2025).
# By UniProt entry, the sequences of proteins in these tests, tags left out. Residues count along the entry.
# UniProt P22303, 32-617 isoform P22303-2 limits assumed: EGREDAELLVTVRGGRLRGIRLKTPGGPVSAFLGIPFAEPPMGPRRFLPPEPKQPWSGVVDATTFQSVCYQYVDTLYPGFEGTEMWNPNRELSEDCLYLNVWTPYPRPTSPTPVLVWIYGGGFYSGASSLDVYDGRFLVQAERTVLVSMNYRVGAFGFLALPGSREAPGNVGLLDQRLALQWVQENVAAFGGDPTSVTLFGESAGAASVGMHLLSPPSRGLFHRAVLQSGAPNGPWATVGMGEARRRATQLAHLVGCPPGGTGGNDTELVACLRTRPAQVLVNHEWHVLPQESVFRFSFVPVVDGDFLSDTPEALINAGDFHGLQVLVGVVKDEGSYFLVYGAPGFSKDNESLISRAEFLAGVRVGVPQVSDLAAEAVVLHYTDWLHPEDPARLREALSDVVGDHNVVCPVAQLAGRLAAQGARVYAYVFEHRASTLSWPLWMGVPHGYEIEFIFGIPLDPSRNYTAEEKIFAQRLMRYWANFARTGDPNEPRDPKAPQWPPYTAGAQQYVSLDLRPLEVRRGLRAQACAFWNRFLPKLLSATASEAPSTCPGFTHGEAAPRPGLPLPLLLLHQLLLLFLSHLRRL
# Key:
# [1] = target: T1, erythrocyte AChE (Homo sapiens, UniProt P22303); conditions: cited from earlier work
# [2] = target: T1, erythrocyte AChE; assay: biochemical; set-up: from tissue; host or cells: human whole peripheral blood (erythrocytes), K2EDTA anticoagulant
Compound,"Reported erythrocyte AChE activity/inhibition ([1]; 0.029 mg/kg BW (2 mg), first dose of repeated exposure study, 2 male volunteers, ref Rodnitzky et al. 1978)","Reported blood ChE activity (unclear if erythrocyte AChE or plasma BuChE) ([1]; human, in vivo)","acceptable daily intake (ADI) for humans ([1]; human, in vivo) [mg/kg BW]",IC50 [2] [µM]
COP(=S)(OC)Oc1ccc([N+](=O)[O-])cc1 [methyl parathion],No significant erythrocyte AChE,Significantly decreased,0.003,
CCOP(=O)(OCC)OC(=CCl)c1ccc(Cl)cc1Cl [chlorfenvinphos],,,,27.7
